Assay results as given in PubChem BioAssay AID1249 (Columbia University Molecular Screening Center, 2008).
The list shows a part of the results, in another mix than the full data. Activity calls are given as the source filed them. The rule behind the calls is not given here.

Assay: cellular cytoskeleton assembly phenotype modulators – imaging, high-content imaging, retest and dose response, confirmation (AID 1249);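 note: compound exposure lasted 24 h before fixation; plate controls were untreated cells for no effect and reference compound treated cells for full effect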
Conditions: cell-based imaging, at 2 µM, stronger effect = higher value

Which inhibition does the source give for O=P(Nc1nccs1)(c1ccccc1)c1ccccc1 here?
The inhibition was inactive: 3.5%.
